This passage reports Ki results from ChEMBL document CHEMBL1136357, “2-arylaminothiazoles as high-affinity corticotropin-releasing factor 1 receptor (CRF1R) antagonists: synthesis, binding studies and behavioral efficacy” (Bioorg Med Chem Lett, 2003).

For this experiment, the target named is T1, Corticotropin-releasing factor receptor 1 (Homo sapiens, UniProt P34998).
T1 sequence (P34998 whole entry): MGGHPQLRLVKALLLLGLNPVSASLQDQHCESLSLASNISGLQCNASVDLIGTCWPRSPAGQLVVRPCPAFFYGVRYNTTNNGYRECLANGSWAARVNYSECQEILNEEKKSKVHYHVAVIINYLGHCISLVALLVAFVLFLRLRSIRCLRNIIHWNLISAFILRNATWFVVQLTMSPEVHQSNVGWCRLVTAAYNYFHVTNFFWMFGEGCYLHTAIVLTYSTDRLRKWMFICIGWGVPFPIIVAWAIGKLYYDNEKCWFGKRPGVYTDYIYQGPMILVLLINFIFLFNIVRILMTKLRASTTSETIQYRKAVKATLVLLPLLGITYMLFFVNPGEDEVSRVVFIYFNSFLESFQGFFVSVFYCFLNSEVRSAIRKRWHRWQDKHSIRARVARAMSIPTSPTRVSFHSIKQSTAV
Description: Binding affinity by displacement of [125I]Tyr-o-CRF from human corticotropin releasing factor receptor 1 expressed in IMR-32 human neuroblastoma cell.

`CCCN(Cc1sc(Nc2ccc(Cl)cc2Cl)nc1C(F)(F)F)CC1CC1` yielded an inhibitory constant (Ki) of 4.6 µM. The value for `CCCN(Cc1oc(Nc2c(Cl)cc(Cl)cc2Cl)nc1C(F)(F)F)CC1CC1` was 3.5 µM.
